Test results from patent US6187807A, “Methods of use and compositions of (S) (-)-amisulpride” (Sanofi-Synthelabo, priority 1999, dated 2001).

Tested on: catalepsy
Assay type: in vivo
Experimental: The propensity of the drugs to induce extrapyramidal side effects was assessed by measuring their potential to induce catalepsy and to antagonize apomorphine-induced stereotyped behaviour and the sedative potential of the drugs was evaluated by their capacity to decrease spontaneous locomotor activity in the rat.
The occurrence of catalepsy in rats was assessed using the four-cork test. This measurement was performed by placing each paw of the rat on a 2.5 cm high cork (diameter 1.2 cm). Distance between contralateral corks was 8 cm and between ipsilateral corks 13 cm. Catalepsy time was measured for a maximum of 2 min at 2 hours, and 4 hours after ip drug treatment.

CCN1CCC[C@H]1CNC(=O)c1cc(S(=O)(=O)CC)c(N)cc1OC [(S)(-)-amisulpride, (S)-(-)-4-amino-N-[(1-ethylpyrrolidin-2-yl)methyl]-5-(ethylsulfonyl)-2-methoxybenzamide]
Potency of both compounds in models predictive of extrapyramidal and sedative side effects ((S)(-)-amisulpride compared with (R,S)-amisulpride, in words): quite similar | Induction of catalepsy, in words (at doses up to 100 mg/kg, ip): neither compound induced catalepsy
